Reference: PubChem BioAssay AID624288 (National Center for Advancing Translational Sciences (NCATS), 2012)
The list shows a part of the results, in another mix than the full data. Inconclusive results are not listed. Active and inactive are the calls of the source. The call rests on the fitted dose curve; cell line not stated here.

assay: qHTS for Antagonists of gsp, the Etiologic Mutation Responsible for Fibrous Dysplasia/McCune-Albright Syndrome: qHTS; details: gsp-mutant cells, cAMP HTRF, 30 min; at 76.9 µM (top of the series) unless noted; further: nearly all actives have a fitted effect of over 65% in size
On the % scale 0 is the no-effect control and ±100 the full control effect.

| SMILES | activity change, negative = inhibition |
| --- | --- |
| CCOP(=O)(NC(=NC(C)c1ccccc1)NC(C)c1ccccc1)OCC (centres undefined) | inactive: -0.722% |
| O=[N+]([O-])c1cc([N+](=O)[O-])c(-n2nnc3ccccc32)c([N+](=O)[O-])c1 | inactive: 5.36% |
| CCC1=CC2Cc3nc4ccc(Cl)cc4c(N)c3C(C1)C2 (centres undefined) | inactive: -0.105% |
| O=P1(Nc2ccccn2)COc2ccccc2OC1 | inactive: 2.16% |
| CN(CCCl)Cc1cc(Cl)c(NC2=NCCN2)c(Cl)c1 | inactive: 32.5% |
| CCOP(=O)(Nc1ccc(C)cn1)OCC | inactive: -2.18% |
| CC(C)(C)C(=O)NC(Sc1ncccn1)C(Cl)(Cl)Cl (centres undefined) | inactive: 0.109% |
| Clc1n[nH]nc1-c1nn[nH][15n]1 | inactive: 4.1% |
| O=P1(Nc2ncccn2)COc2ccccc2OC1 | inactive: 3.95% |
| CN1CCCCC1COC(=O)C1(O)c2ccccc2CCc2ccccc21 (centres undefined) | inactive: 10.7% |
| COc1ccccc1OP(C)(=O)Nc1c(C)cccc1C (centres undefined) | inactive: 11.8% |
| CP(=O)(Nc1ccc(SC(F)(F)F)cc1)Oc1ccccc1 (centres undefined) | inactive: 2.16% |
| Nc1cccc([As](=O)(O)c2ccccc2)c1 | inactive: 8.27% |
| CCCOc1ccc(NP(C)(=O)Oc2ccc(Cl)cc2)cc1 (centres undefined) | inactive: -4.07% |
| NS(=O)(=O)c1cccc(NC(=O)COC(=O)C(O)(c2ccccc2)c2ccccc2)c1 | inactive: -1.29% |
| O=P1(Nc2ccc(Br)cn2)COc2ccccc2OC1 | inactive: -2.25% |
| Cc1ccc(OCC(=O)OC2CN3CCC2CC3)cc1 (centres undefined) | inactive: 14.6% |
| O=[As](O)(c1cccs1)c1cccs1 | inactive: -2.63% |
| Cc1ccc(C(=O)OC2CN3CCC2CC3)cc1 (centres undefined) | inactive: 14.7% |
| CC1CCC(C(C)C)C(OP(=O)(Nc2ccccn2)c2ccccc2)C1 (centres undefined) | inactive: -9.17% |
| Cc1nn(-c2ccccc2)c2c1P(=O)(N1CCOCC1)N(C)C(c1ccccc1)=N2 (centres undefined) | inactive: 1.59% |
| COc1cc(C2NCCC3(OCCO3)C2(C)C)cc(OC)c1OC.O=[N+]([O-])c1cc([N+](=O)[O-])c(O)c([N+](=O)[O-])c1 (centres undefined) | inactive: -13.9% |
| O=[N+]([O-])c1cc([N+](=O)[O-])c(Nc2nnnn2CCO)c([N+](=O)[O-])c1 | inactive: -9.98% |
| CC1=C2N=C(C=C3N=C(C(C)=C4[N-][C@@](C)([C@@H]5N=C1[C@](C)(CCC(=O)NC[C@@H](C)OP(=O)([O-])O[C@H]1[C@@H](O)[C@@H](n6cnc7cc(C)c(C)cc76)O[C@@H]1CO)[C@H]5CC(N)=O)[C@@](C)(CC(N)=O)[C@@H]4CCC(N)=O)[C@@](C)(CC(N)=O)[C@@H]3CCC(N)=O)C(C)(C)[C@@H]2CCC(N)=O.[C-]#N.[Co+3] | inactive: 2.33% |
